Activation data for 75 compounds are collected here from PubChem BioAssay AID540308 (The Scripps Research Institute Molecular Screening Center, 2011).

By UniProt entry, the sequences of proteins in these tests, tags left out.
UniProt P32245, whole entry: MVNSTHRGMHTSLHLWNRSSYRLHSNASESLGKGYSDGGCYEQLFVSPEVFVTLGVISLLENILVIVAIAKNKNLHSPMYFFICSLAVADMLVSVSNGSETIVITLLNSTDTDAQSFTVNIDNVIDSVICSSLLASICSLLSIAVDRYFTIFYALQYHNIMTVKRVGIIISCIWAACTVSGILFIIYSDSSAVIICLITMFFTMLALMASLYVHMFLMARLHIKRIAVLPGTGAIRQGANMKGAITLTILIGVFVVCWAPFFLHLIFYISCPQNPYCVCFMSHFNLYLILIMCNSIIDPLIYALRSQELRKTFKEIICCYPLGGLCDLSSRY

The list shows a part of the results, in another mix than the full data. Calls of active or inactive are those of the source.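 The calls were made as follows: active = activation above a per-plate cutoff, the mean activation of sample wells on that plate plus 3 SD (cut at about 8% in these data); inactive = the rest.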

The assay deals with Melanocortin receptor 4 (Homo sapiens) (UniProt P32245). Put plainly: activators of MC4R beta-arrestin recruitment – cell-based, luminescence, agonist arm of biased-ligand search, primary screen (AID 540308). The conditions noted are these: U2OS MC4R beta-arrestin complementation, at 8.9 µM, stronger effect = higher value, percent of melanotan II response, DMSO zero.
With `COc1ccc(C(=O)NCC2(N3CCOCC3)CCCCC2)cc1OC`, the activation was inactive: 0.12%. Take `COc1cc(C(=O)NCC2(N3CCOCC3)CCCCC2)cc(OC)c1C`: the activation was inactive: -0.07%. Regarding `O=C(NCC1(N2CCOCC2)CCCCC1)c1cc(Br)ccc1Cl`, the activation is inactive: -0.22%. With `O=C(OC1CN2CCC1CC2)C1c2ccccc2C=Cc2ccccc21` (stereo not given), the activation was inactive: -0.97%. Take `CCOC(=O)N1CCC(Nc2ccc(C)cc2)CC1`: the activation is inactive: 0.6%. Under `N/C(=N\O)c1c(N)no[n+]1[O-]` stands inactive: -0.54%.

For `N#Cc1ccc(C(=O)NCC2(N3CCCCC3)CCCCC2)cc1`, the activation is inactive: -0.29%. Regarding `CC(C)(C)OC(=O)N1CCC(N(C(=O)c2ccccc2)c2ccc(Cl)cc2)CC1`, the activation was inactive: 2.19%. On to `CN(C)C1(CNC(=O)c2cccc(C#N)c2)CCCCC1`, for which the activation was inactive: 1.76%. Turning to `c1ccc(CN2CCC(Nc3ccccc3)CC2)cc1`, the activation is inactive: 0.59%. Under `CCCN1CCC(Nc2cc(OC)cc(OC)c2)CC1` stands inactive: -2.02%; under `Cc1cc(N(CCCl)CCCl)ccc1C=O`, inactive: -1.33%; under `Cc1ccc(C(=O)NCC2(N3CCCCC3)CCCCC2)o1`, inactive: -3.12%.

Take `Fc1ccccc1NC1CCN(Cc2ccccc2)CC1`: the activation is inactive: 0.18%. Consider `Cc1ccc(NC2(C#N)CCN(Cc3ccccc3)CC2)cc1`, for which the activation was inactive: -2.26%. As for `CC(=O)N(c1ccccc1)C1CCNCC1`, the activation is inactive: -0.76%. In the case of `COc1cc(OC)cc(C(=O)NCC2(N3CCCCC3)CCCCC2)c1`, the activation was inactive: -0.01%. Take `O=C(NCC1(N2CCCCC2)CCCCC1)c1ccco1`: the activation is inactive: -1.72%. For the compound `CN(C)c1ccc(C(=O)NCC2(N3CCCCC3)CCCCC2)cc1`, the activation was inactive: -0.9%. Consider `Cn1c(=O)[nH]cc(N(CCCl)CCCl)c1=O`, for which the activation is inactive: -1.02%. As for `Cc1ccccc1NC1(C#N)CCN(Cc2ccccc2)CC1`, the activation was inactive: 0.73%. As for `CCN1CCC(Nc2cccc(F)c2)CC1`, the activation is inactive: -0.37%.

Consider `CC(C)(C)OC(=O)N1CCC(Nc2ccccc2)CC1`, for which the activation was inactive: 1.8%. As for `O=C(O)C1(Nc2ccccc2)CCN(Cc2ccccc2)CC1`, the figure is inactive: -0.28%; as for `CCCOc1ccc(C(=O)NCC2(N(C)C)CCCCC2)cc1`, inactive: -1.8%; as for `CCOc1ncccc1C(=O)NCC1(N2CCOCC2)CCCCC1`, inactive: -1.44%. For `CN1CCC(Nc2ccc(F)c(Cl)c2)CC1`, the activation was inactive: 2.08%. Regarding `CN1CCC(Nc2ccc(Cl)cc2)CC1`, the activation was inactive: 0.08%.

Consider `COc1cc(OC)cc(C(=O)NCC2(N3CCOCC3)CCCCC2)c1`, for which the activation was inactive: -1.26%. As to `COc1cccc(C(=O)N(c2cc(C)cc(C)c2)C2CCN(C(=O)OC(C)(C)C)CC2)c1`, the activation is inactive: 2.89%. Under `CCC(CO)(C(=O)OC1CN2CCC1CC2)c1ccccc1` (stereo not given) stands inactive: 3.62%; under `CSc1ccccc1C(=O)NCC1(N2CCCCC2)CCCCC1`, inactive: -1.43%.

For `Cc1cccc(NC2(C#N)CCN(Cc3ccccc3)CC2)c1`, the activation is inactive: -1.68%. Consider `COc1ccc(C(=O)NCC2(N3CCCCC3)CCCCC2)cc1`, for which the activation was inactive: -0.77%. On to `COc1ccc(C(=O)NCC2(N3CCCCC3)CCCCC2)c(OC)c1OC`, for which the activation is inactive: -2.65%.

Consider `CC(C)(C)OC(=O)N1CCC(N(C(=O)c2ccccc2)c2ccc(F)cc2)CC1`, for which the activation is inactive: -1.63%. Under `O=C(NCC1(N2CCCCC2)CCCCC1)c1ccc(=O)[nH]c1` stands inactive: -1.98%; under `O=C(NCC1(N2CCCCC2)CCCCC1)c1cccs1`, inactive: -0.5%; under `N#CC1(Nc2ccccc2)CCN(Cc2ccccc2)CC1`, inactive: 1.06%.

In the case of `O=C(NCC1(N2CCCCC2)CCCCC1)c1ccc(Cl)s1`, the activation was inactive: -1.53%. With `O=C(OC1CN2CCC1CC2)C1c2ccccc2Oc2ccccc21` (stereo not given), the activation was inactive: -2.07%. With `COc1ccc(Cl)cc1C(=O)NCC1(N2CCOCC2)CCCCC1`, the activation is inactive: -1.7%. For `CCOC(=O)N1CCC(Nc2ccc(OC)cc2)CC1`, the activation was inactive: -3%.

Consider `O=C(NCC1(N2CCCCC2)CCCCC1)c1ccc(Cl)nc1`, for which the activation was inactive: 0.96%.

For the compound `Cc1cc(C)cc(N(C(=O)c2ccccc2)C2CCN(C(=O)OC(C)(C)C)CC2)c1`, the activation was inactive: 2.24%. Take `O=C(NCC1(N2CCOCC2)CCCCC1)c1cc2ccccc2o1`: the activation is inactive: 0.78%. With `O=P1(N(CCCl)CCCl)SCCCS1`, the activation was inactive: 0.84%.

Consider `CCCCOc1ccc(C(=O)NCC2(N3CCOCC3)CCCCC2)cc1`, for which the activation was inactive: -1%. Turning to `O=C(NCC1(N2CCCCC2)CCCCC1)c1ccc(F)cc1`, the activation was inactive: 0.48%.

Turning to `COc1ccc(NC2CCN(CCc3ccccc3)CC2)c(OC)c1`, the activation is inactive: -0.19%. Take `CCOC(=O)N1CCC(Nc2ccc(F)cc2)CC1`: the activation is inactive: -1.37%. As for `O=C1CCN(Cc2ccccc2)CC1`, the activation is inactive: -0.74%. Consider `CCOc1ccc(C)cc1CN(CCCl)CCCl`, for which the activation was inactive: 1.47%. `CCOC(=O)N1CCC(Nc2cccc(C)c2)CC1`: the activation is inactive: -1.95%. On to `COc1cc(C(=O)NCC2(N(C)C)CCCCC2)ccc1OC(F)F`, for which the activation was inactive: -1.5%.

For the compound `CCN1CCC(Nc2ccc(Cl)cc2)CC1`, the activation was inactive: -0.58%. Regarding `N#CC1(Nc2ccccc2)CCN(CCc2ccccc2)CC1`, the activation was inactive: -0.97%. `CSc1ccc(C(=O)NCC2(N3CCOCC3)CCCCC2)cc1`: the activation was inactive: 0.42%. Regarding `O=C(NCC1(N2CCCCC2)CCCCC1)c1cccc([N+](=O)[O-])c1`, the activation is inactive: -0.71%. As for `O=C(NCC1(N2CCCCC2)CCCCC1)c1ccc(OC(F)F)cc1`, the figure is inactive: -0.56%. Regarding `COc1cc(C(=O)NCC2(N3CCCCC3)CCCCC2)ccc1OC(F)F`, the activation was inactive: 2.26%. Under `O=C(NCC1(N2CCOCC2)CCCCC1)c1cc(=O)[nH]c2ccccc12` stands inactive: -0.21%; under `CN1CCN(CCOC(=O)C(O)(c2ccccc2)c2ccccc2)CC1`, inactive: -1.06%; under `COc1ccc(NC2CCN(C(=O)OC(C)(C)C)CC2)cc1`, inactive: -3.18%.

As to `CC(C)c1ccc(C(=O)NCC2(N3CCOCC3)CCCCC2)cc1`, the activation is inactive: 0.48%. As for `O=C(NCC1(N2CCCCC2)CCCCC1)c1cccc(C(F)(F)F)c1`, the figure is inactive: -0.41%; as for `COc1cc(OC)c(C(=O)NCC2(N(C)C)CCCCC2)cc1OC`, inactive: -0.6%; as for `O=C(NCC1(N2CCOCC2)CCCCC1)c1cc(F)c(F)cc1Cl`, inactive: 0.73%. Take `CC(C)c1ccc(NC2CCN(C(=O)OC(C)(C)C)CC2)cc1`: the activation was inactive: 3.35%. With `COc1ccc(CN(CCCl)CCCl)cc1Cl`, the activation was inactive: -2.94%.

As for `CN(C)c1cccc(C(=O)NCC2(N3CCCCC3)CCCCC2)c1`, the activation is inactive: 0.47%. Take `Cc1ccc(C(=O)NCC2(N(C)C)CCCCC2)o1`: the activation was inactive: -0.04%. For the compound `CCCOc1ccc(C(=O)NCC2(N(C)C)CCCCC2)cc1OC`, the activation is inactive: -1.95%. `CN1CCC(Nc2cccc(F)c2)CC1`: the activation is inactive: -1.65%. With `O=C(NCC1(N2CCCCC2)CCCCC1)c1cncc(Br)c1`, the activation was inactive: 0.16%.
